Test results as given in article PMC3135172.

Target: BPTF bromodomain (human)
Assay: ITC

Kd: 99 µM
Substance: H4K16ac peptide
